Data taken from patent US20040185510A1, “Use of labelled CCK-B receptor ligands for the detection and localization of malignant human tumours” (priority 1996, published 2004).

Columns and labels:
[1] = molecular target: T1, CCK-B receptors in medullary thyroid carcinoma (MTC) tissue sections (Homo sapiens, UniProt P32239); experiment: Receptor autoradiography: displacement of [125I]-CCK-10 analog (compound 15) binding to MTC tissue sections; details: increasing concentrations of unlabelled peptide, optical density in tumour area
T1 construct: Receptor autoradiography is performed on 10- and 20-μm thick cryostat sections of the various tumour samples; from tissue; host or cells: human medullary thyroid carcinoma (MTC) tissue sections
T1 sequence (P32239 1-447): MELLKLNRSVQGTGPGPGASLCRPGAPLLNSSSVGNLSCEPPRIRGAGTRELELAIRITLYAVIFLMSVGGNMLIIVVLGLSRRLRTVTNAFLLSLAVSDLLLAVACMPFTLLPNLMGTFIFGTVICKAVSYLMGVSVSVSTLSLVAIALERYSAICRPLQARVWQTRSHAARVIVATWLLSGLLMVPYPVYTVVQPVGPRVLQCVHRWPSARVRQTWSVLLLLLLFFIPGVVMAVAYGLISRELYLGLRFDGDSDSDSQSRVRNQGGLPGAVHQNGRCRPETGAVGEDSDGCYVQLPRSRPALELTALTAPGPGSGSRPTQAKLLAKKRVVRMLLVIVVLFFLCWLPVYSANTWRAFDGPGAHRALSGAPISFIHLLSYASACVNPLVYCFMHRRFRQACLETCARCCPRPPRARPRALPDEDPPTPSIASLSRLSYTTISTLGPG

[2] = molecular target: CCK-B receptors in small cell lung carcinoma (SCLC) tissue sections (Homo sapiens, UniProt P32239); experiment: Receptor autoradiography: displacement of [125I]-CCK-10 analog (compound 15) binding to SCLC tissue sections; details: increasing concentrations of unlabelled peptide
[3] = molecular target: T1, CCK-B receptors in medullary thyroid carcinoma (MTC) tissue sections; experiment: Receptor autoradiography: displacement of [125I]-desulfated-CCK-10 (compound 13 or 14) binding to MTC tissue sections; details: increasing concentrations of unlabelled peptide

Asp-Tyr(SO3H)-Met-Gly-Trp-Met-Aso-Phe-NH2 (MGWM; Asp-Tyr(SO3H) prefix, Asp-Phe-NH2 suffix; printed: Met-Gly-Trp-Met-) [compound 16, reference compound]
complete displacement: displacement of [125I]-CCK-10 analog (compound 15) binding [1] | displacement of [125I]-CCK-10 analog (compound 15) binding [2] | displacement of [125I]-desulfated-CCK-10 (compound 13 or 14) binding [3]
